Ki data for one compound are collected here from ChEMBL document CHEMBL5727992, “3-((hetero-)aryl)-8-amino-2-oxo-1,3-diaza-spiro-[4.5]-decane derivatives” (2020).

The nature of this assay: Receptor Binding Assay: NOP:The hNOP receptor binding assay was performed as homogeneous SPA-assay (scintillation proximity assay) using the assay buffer 50 mM TRIS-HCl. 10 mM MgCl2. 1 mM EDTA (pH 7.4). The final assay volume (250 μl/well) included 0.5 nM of [leucyl-3H]nociceptin as ligand (PerkinElmer Life Sciences. Inc. Boston. Mass. USA). and either test compound in dilution series or 1 μM unla. For orientation: Scintillation proximity formats need no separation of bound from free tracer.

For orientation: Ki means the dissociation constant of the complex between target and ligand, obtained from inhibition or displacement. Low readings indicate higher affinity, high ones lower affinity. `CN[C@]1(c2ccccc2)CC[C@]2(CC1)CN(CC(C)(C)C(N)=O)C(=O)N2` registered a Ki of 1300 nM. This counts as single-digit micromolar.
